Earlier results as cited in patent US8211015B2 (priority 2006, dated 2012).
This is a selection: effects in other tests are not listed, and their absence says nothing.

Settings: non-obstetric population

**Q.** Which clearance does the source give for `CCC(=O)N(c1ccccc1)C1(C(=O)OC)CCN(CCC(=O)OC)CC1` here?
**A.** Its clearance is 40 mL/min/kg.

**Q.** What about the “duration of action independent of infusion duration (context-sensitive half-life)” value of the same compound?
**A.** The value was 3 min.
